Data on 2 compounds can be found in patent US7193033B2, “Peptide having appetite stimulating activity” (Takeda Pharmaceutical Company Limited, priority 2001, dated 2007).

Chains of the proteins cited; added tags and fusions are not shown. Lines headed by an entry give the natural chain unless they say otherwise; changes in a name come on top.
UniProt P48146: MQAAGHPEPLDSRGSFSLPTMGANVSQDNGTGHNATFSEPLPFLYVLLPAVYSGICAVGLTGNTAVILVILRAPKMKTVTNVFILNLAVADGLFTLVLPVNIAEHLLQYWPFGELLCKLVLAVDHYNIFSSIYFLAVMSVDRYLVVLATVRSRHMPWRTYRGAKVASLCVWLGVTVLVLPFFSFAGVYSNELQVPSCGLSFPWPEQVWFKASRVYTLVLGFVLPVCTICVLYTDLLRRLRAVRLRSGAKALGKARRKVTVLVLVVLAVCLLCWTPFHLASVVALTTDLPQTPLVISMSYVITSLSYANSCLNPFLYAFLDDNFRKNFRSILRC

Assay [1] has as its target T1, GPR8 (Homo sapiens, UniProt P48146).
T1 construct: expressed in transfected cells
The experiment in a line: GTPγ S binding promoting activity on GPR8-expressed CHO cell membrane fraction. Format: biochemical. To be noted: various concentrations. As for the experimental part: The [^35S]-guanosine 5′-(γ-thio)triphosphate binding promoting activity on a GPR8-expressed CHO cell membrane fraction was assayed by the following procedures. First, preparation of the membrane fraction is described. To 1×10^8 of CHO/GPR8 cells was added 10 ml of a homogenate buffer (10 mM NaHCO3, 5 mM EDTA, 0.5 mM PMSF, 1 μg/ml pepstatin, 4 μg/ml E64, 20 μg/ml leupeptin). The mixture was homogenized by using Polytron (12,000 rpm, 1 min.). The cell homogenate was subjected to centrifugation (1,000 g, 15 mins.) to obtain the supernatant. Next, the supernatant was subjected to ultracentrifugation (Beckman type 30 rotor, 30,000 rpm, 1 hour). The resulting precipitate was used as GPR8-expressed CHO cell membrane fraction.
The GTPγ S binding activity was assayed as follows. The GPR8-expressed CHO cell membrane fraction was diluted with a membrane dilution buffer (50 mM Tris-hydrochloride buffer (pH 7.4), 5 mM MgCl2, 150 mM NaCl, 1 μM GDP) to prepare a cell membrane fraction solution for assay having a protein level of […]. To 200 μl of the cell membrane fraction solution for assay were added 2 μl of 51.5 nM [^35S]-guanosine 5′-(γ-thio)triphosphate (NEN Co.) and a sample fluid. […] After washing twice with 1.5 ml of a wash buffer (50 mM Tris-hydrochloride buffer (pH 7.4), 5 mM MgCl2, 1 mM EDTA, 0.1% BSA), radioactivity of the filter was measured with a liquid scintillation counter. […]
For orientation: Binding of GTPγS marks nucleotide exchange on a G protein.

The target of assay [2] is T1, GPR8. The assay is described as follows: Intracellular cAMP production suppressing activity in GPR8-expressed CHO cells (forskolin-stimulated). Format: cell-based. Conditions: forskolin-containing reaction buffer. Here is the method:
The CHL/GPR8 cells produced in EXAMPLE 4 and mock CHO cells were inoculated on a 24-well plate in 5×10^4 cells/well, followed by cultivation for 48 hours. The cells were washed with Hanks' buffer (pH 7.4) containing 0.2 mM 3-isobutyl-methylxanthine, 0.05% BSA and 20 mM HEPES (hereinafter Hanks' buffer (pH 7.4) containing 0.2 mM 3-isobutyl-methylxanthine, 0.05% BSA and 20 mM HEPES is referred to as a reaction buffer). Thereafter, 0.5 ml of the reaction buffer was added to the system, which was kept warm in an incubator for 30 minutes. After the reaction buffer was removed, 0.25 ml of a fresh reaction buffer was added to the cells. Then, 0.25 ml of the reaction buffer containing a sample fluid and 2 μM forskolin was added to the cells followed by reacting at 37° C. for 24 minutes. By adding 100 μl of 20% perchloric acid, the reaction was terminated. The reaction mixture was then allowed to stand on ice for an hour to extract intracellular cAMP. The amount of cAMP in the extract was measured using cAMP EIA kit (Amersham Pharmacia Biotech).
hGPR8L (1–23), which was synthesized in EXAMPLE 12, was brought in contact with the GPR8-expressed CHO cells in various concentrations according to the procedures described in EXAMPLE 5, to assay the intracellular cAMP production suppressing activity. […]

The subject of a further assay is blood prolactin level. The assay is described as follows: Prolactin release promoting activity after intracerebroventricular injection in rats. The class given is in vivo, rat. To be noted: Wistar male rats, intracerebroventricular (third ventricle) injection, plasma radioimmunoassay 5-60 min. The source says: Wistar male rats (9 weeks old) under pentobarbital anesthesia were inserted with a guide cannula (AG-12) targeted at the third ventricle (AP: −7.1, L: 0.0, H: 2.0 mm). Animals were allowed at least a week of recovery postoperatively before being used in the experiments. During the recovery period, animals were subjected to handling every day to minimize a stress caused by intracerebroventricular injection.
On the day before the experiments, rats under pentobarbital anesthesia were inserted with a cannula into the right jugular vein for blood collection. The test was performed between 9:00 and 12:00. Rats were inserted with a microinjection cannula under unanesthesia and nonrestraint, and were given a PBS solution of the human GPR8 ligand peptide (SEQ ID NO :16) (n=9) obtained in EXAMPLE 12 or PBS alone in a dose of 5 μl/min for 2 minutes. The microinjection cannula was removed 1 minute after completion of the injection and animals were allowed to move freely. Blood was collected by 300 μl each prior to the peptide injection and 5, 10, 20, 30 and 60 minutes after the start of injection. In order to keep the body water content constant, the equal volume of saline was given through the jugular vein after blood collection. […]

Take `CSCC[C@H](NC(=O)[C@H](CC(C)C)NC(=O)[C@H](CC(C)C)NC(=O)CNC(=O)[C@H](C)NC(=O)[C@H](C)NC(=O)[C@H](CCCNC(=N)N)NC(=O)CNC(=O)[C@@H](NC(=O)[C@@H](NC(=O)[C@H](Cc1c[nH]cn1)NC(=O)[C@H](Cc1ccc(O)cc1)NC(=O)[C@H](CCCNC(=N)N)NC(=O)[C@@H]1CCCN1C(=O)[C@H](CO)NC(=O)[C@H](C)NC(=O)[C@@H](NC(=O)[C@H](Cc1c[nH]cn1)NC(=O)[C@H](CCCCN)NC(=O)[C@H](Cc1ccc(O)cc1)NC(=O)[C@@H](N)Cc1c[nH]c2ccccc12)C(C)C)[C@@H](C)O)C(C)C)C(=O)NCC(=O)N[C@@H](CC(C)C)C(=O)O` [hGPR8L(1–23)]: on GPR8 [1], the “GTPγ S binding promoting activity (in words)” value is “dose-dependently promoted the GTPγ S binding”. At GPR8 [2], the “Intracellular cAMP production suppressing activity (in words)” value is “dose-dependently suppressed the intracellular cAMP production”. Moreover, the “Blood prolactin level (in words)” value with blood prolactin level is “increased the blood prolactin level”.

In the case of `CSCC[C@H](NC(=O)[C@H](CC(C)C)NC(=O)[C@H](CC(C)C)NC(=O)CNC(=O)[C@H](C)NC(=O)[C@H](C)NC(=O)[C@H](CCCNC(=N)N)NC(=O)CNC(=O)[C@@H](NC(=O)[C@@H](NC(=O)[C@H](Cc1c[nH]cn1)NC(=O)[C@H](Cc1ccc(O)cc1)NC(=O)[C@H](CCCNC(=N)N)NC(=O)[C@@H]1CCCN1C(=O)[C@H](CO)NC(=O)[C@H](C)NC(=O)[C@@H](NC(=O)[C@H](Cc1c[nH]cn1)NC(=O)[C@H](CCCCN)NC(=O)[C@H](Cc1ccc(O)cc1)NC(=O)[C@@H](N)Cc1c[nH]c2ccccc12)C(C)C)[C@@H](C)O)C(C)C)C(=O)NCC(=O)N[C@@H](CC(C)C)C(=O)N[C@@H](CCCNC(=N)N)C(=O)N[C@@H](CCCNC(=N)N)C(=O)N[C@@H](CO)C(=O)N1CCC[C@H]1C(=O)N[C@@H](Cc1ccc(O)cc1)C(=O)N[C@@H](CC(C)C)C(=O)N[C@@H](Cc1c[nH]c2ccccc12)C(=O)O` [hGPR8L(1–30)], the “Intracellular cAMP production suppressing activity (in words)” value at GPR8 [2] is given as “dose-dependently suppressed the intracellular cAMP production”.
